Ki data for 1 molecule are collected here from ChEMBL document CHEMBL3232792, “Cyclic secondary sulfonamides: unusually good inhibitors of cancer-related carbonic anhydrase enzymes” (J Med Chem, 2014).

Chains of the proteins cited; added tags and fusions are not shown. Lines headed by an entry give the natural chain unless they say otherwise; changes in a name come on top.
UniProt Q9ULX7: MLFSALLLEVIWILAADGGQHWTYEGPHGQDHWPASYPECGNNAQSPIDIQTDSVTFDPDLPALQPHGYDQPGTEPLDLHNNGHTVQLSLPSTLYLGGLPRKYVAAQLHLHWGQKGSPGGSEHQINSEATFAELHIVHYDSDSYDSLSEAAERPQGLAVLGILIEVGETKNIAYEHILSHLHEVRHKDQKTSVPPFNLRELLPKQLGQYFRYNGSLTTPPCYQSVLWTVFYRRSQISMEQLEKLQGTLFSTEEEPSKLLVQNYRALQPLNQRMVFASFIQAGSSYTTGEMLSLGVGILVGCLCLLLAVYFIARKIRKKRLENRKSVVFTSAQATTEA

Molecules are shown by their SMILES.

This test addresses Carbonic anhydrase 14 (Homo sapiens, UniProt Q9ULX7).

By Ki is commonly meant the dissociation constant of the complex between target and ligand, obtained from inhibition or displacement. Higher therefore signals a looser hold on the target. As for `O=C1NS(=O)(=O)c2ccccc21` [SACCHARIN], the affinity corresponds to a Ki of 773 nM.
